Patent EP1351565B1, “CHEMICAL INHIBITORS OF MISMATCH REPAIR” (Morphotek, Inc., priority 2001, dated 2002)

System: H36pCAR-OF cell line
Test: H36pCAR-OF screening assay (MMR-sensitive β-galactosidase reporter)
Assay type: cell-based, murine

CN(N=O)C(=N)N[N+](=O)[O-]
MI and/or shifting of the polynucleotide tract in the pCAR-OF reporter (β-galactosidase positive cells): did not result in MI
